One-dose inflammasome screen (PubChem AID 2061109, Seoul National University)
system: mouse macrophages from bone marrow, LPS + nigericin (NLRP3)
compound dose: 5 µM
value: % inhibition of cell death (propidium iodide), 0 = stimulated, 100 = untreated, floor at 0
*: called active, above 70% Part of the library is listed.

{"smiles": "O=C(CNC(=O)c1ccc(C2=NOC(c3cc(Cl)cc(C(F)(F)F)c3)(C(F)(F)F)C2)c2ccccc12)NCC(F)(F)F", "inhibition (%)": "25.3"}
{"smiles": "CC1(C)[C@@H]2CC[C@@]1(C)[C@H](O)C2", "inhibition (%)": "0.0"}
{"smiles": "COc1ccc2[nH]c(C(=O)N3CCC(CC(C)(C)O)CC3)cc2c1", "inhibition (%)": "61.1"}
{"smiles": "CC(NCCC(c1ccccc1)c1ccccc1)c1ccccc1.Cl", "inhibition (%)": "0.0"}
{"smiles": "COc1cc(O)cc2oc(-c3ccc(O)c(O)c3)c(O)c(=O)c12", "inhibition (%)": "31.6"}
{"smiles": "O=C(NCc1c(F)cc(F)cc1F)c1cn2c(c([O-])c1=O)C(=O)N1[C@H]3CC[C@H](C3)O[C@@H]1C2.[Na+]", "inhibition (%)": "73.8*"}
{"smiles": "Fc1cc(F)c2c(c1)[C@H]1C=CC[C@H]1C(c1cccnc1)N2", "inhibition (%)": "69.2"}
{"smiles": "CN1CCN(C(c2ccccc2)c2ccc(Cl)cc2)CC1", "inhibition (%)": "0.0"}
{"smiles": "CCC(=O)OCC(=O)[C@@]1(OC(=O)CC)[C@@H](C)C[C@H]2[C@@H]3CCC4=CC(=O)C=C[C@]4(C)[C@@]3(Cl)[C@@H](O)C[C@@]21C", "inhibition (%)": "0.0"}
{"smiles": "COc1ncc(F)cc1CNc1ccc(Cc2c[nH]c3ncc(C)cc23)c(F)n1", "inhibition (%)": "0.0"}
{"smiles": "Cc1occc(=O)c1[O][Ga]([O]c1c(C)occc1=O)[O]c1c(C)occc1=O", "inhibition (%)": "0.0"}
{"smiles": "CCC(C(=O)O)c1ccc(N2Cc3ccccc3C2=O)cc1", "inhibition (%)": "38.7"}
{"smiles": "O=C(NN=Cc1cc([N+](=O)[O-])ccc1O)c1ccc(O)cc1O", "inhibition (%)": "39.0"}
{"smiles": "Cc1nc2ccc(C(=O)N3CCC4(CC3)CC(=O)c3c(cnn3C(C)C)C4)cc2[nH]1", "inhibition (%)": "0.0"}
{"smiles": "Nc1ccc(-c2cccs2)cc1NC(=O)c1ccc2nc(N3CCNCC3)ccc2c1", "inhibition (%)": "67.5"}
{"smiles": "CC(=O)C1=C(O)C=C2Oc3c(C(C)=O)c(O)c(C)c(O)c3[C@]2(C)C1=O", "inhibition (%)": "66.8"}
{"smiles": "COC(=O)C1=C(C)NC(C)=C(C(=O)OC)C1c1cccc(NC(=O)NCCCN2CCC(c3cccc(OC)c3)CC2)c1", "inhibition (%)": "0.0"}
{"smiles": "CNc1c(C)n(C)n(-c2ccccc2)c1=O", "inhibition (%)": "0.0"}
{"smiles": "CC(C)(CC(=O)N1CCCC1)NCC(=O)N1C[C@@H](F)C[C@H]1C#N", "inhibition (%)": "33.9"}
{"smiles": "NC(=O)CN1CCN(c2ccc(Nc3ncc4ccn(Cc5cc(F)cc(F)c5)c4n3)cc2)CC1", "inhibition (%)": "28.8"}
{"smiles": "COc1ccc(N2CCN(C(=S)Nc3ccc([N+](=O)[O-])cc3)CC2)c(N)c1", "inhibition (%)": "0.0"}
{"smiles": "CCS(=O)(=O)Nc1ccc2[nH]c(O)c(C(=Nc3ccc(CN4CCCCC4)cc3)c3ccccc3)c2c1", "inhibition (%)": "0.0"}
{"smiles": "CC(C)(C)Sc1c(CC(C)(C)C(=O)O)n(Cc2ccc(Cl)cc2)c2ccc(OCc3ccc4ccccc4n3)cc12", "inhibition (%)": "25.2"}
{"smiles": "Cc1[nH]c(/C=C2\\C(=O)Nc3ccccc32)c(C)c1CCC(=O)O", "inhibition (%)": "52.3"}
{"smiles": "O=C(Nc1ccccc1)c1ccc(Nc2nnc(-c3ccc(O)cc3)c3ccccc23)cc1", "inhibition (%)": "79.8*"}
{"smiles": "CCCCN(CC)c1nc(C)nc2c1c(C)c(C)n2-c1c(C)cc(C)cc1C.Cl", "inhibition (%)": "0.0"}
{"smiles": "c1cn2cc(-c3ccc4cn[nH]c4c3)nc(Nc3ccc(N4CCOCC4)cc3)c2n1", "inhibition (%)": "71.3*"}
{"smiles": "Cc1[nH]n(-c2nc3c(Cl)c(Cl)ccc3[nH]2)c(=O)c1C1OC(=O)c2ccccc21", "inhibition (%)": "0.0"}
{"smiles": "CS(=O)(=O)NC(=O)c1cc(Oc2ccc(C(F)(F)F)cc2Cl)ccc1[N+](=O)[O-]", "inhibition (%)": "29.9"}
{"smiles": "COC(=O)C=Cc1ccc(O)c(OC)c1", "inhibition (%)": "54.4"}
{"smiles": "CNc1nnc(SCc2ccccc2)s1", "inhibition (%)": "0.0"}
{"smiles": "Cc1ccc(-c2nnc(NC(=O)c3ccc(Br)s3)o2)cc1", "inhibition (%)": "3.5"}
{"smiles": "CN(C)c1ccc2nc3ccc(=[N+](C)C)cc-3sc2c1.[Cl-]", "inhibition (%)": "6.2"}
{"smiles": "O=C(/C=C\\n1cnc(-c2cc(C(F)(F)F)cc(C(F)(F)F)c2)n1)N1CC(F)(F)C1", "inhibition (%)": "62.7"}
{"smiles": "Cc1cc(N2CCCCC2)nc2ccccc12", "inhibition (%)": "0.0"}
{"smiles": "CCCCOc1ccc(CC/C=C2\\SC(=O)N(CCN)C2=O)cc1.Cl", "inhibition (%)": "21.6"}
{"smiles": "CN(C)CCCN1c2ccccc2CCc2ccccc21.Cl", "inhibition (%)": "0.0"}
{"smiles": "C=C(C)C(=O)Nc1ccc(-c2c(-c3ccc(Oc4nccc(C)n4)c(F)c3)c3c(N)ncnc3n2C)cc1", "inhibition (%)": "0.0"}
{"smiles": "COc1ccc2cc3[n+](cc2c1OC)CCc1cc(O)c(O)cc1-3", "inhibition (%)": "43.7"}
{"smiles": "C=C1CC[C@H](O)C/C1=C/C=C1\\CCC[C@]2(C)[C@@H]([C@H](C)/C=C/[C@H](C)C(C)C)CC[C@@H]12", "inhibition (%)": "0.0"}
{"smiles": "O=C1Nc2ccccc2/C1=C\\c1ccc(F)cc1", "inhibition (%)": "53.7"}
{"smiles": "CCC(=O)O[C@]1(C(=O)CO)CC[C@H]2[C@@H]3CCC4=CC(=O)CC[C@]4(C)[C@H]3CC[C@@]21C", "inhibition (%)": "0.0"}
{"smiles": "CCS(=O)(=O)c1ccc(CC(=O)Nc2cc(Cl)c(-c3ccccc3OC(F)(F)F)c(Cl)c2)cc1", "inhibition (%)": "0.0"}
{"smiles": "Cc1ccc(C2CC(=O)NC(SCC(=O)Nc3nccs3)=C2C#N)cc1", "inhibition (%)": "60.0"}
{"smiles": "Cc1ccc([C@@H]2O[C@H](CO)[C@@H](O)[C@H](O)[C@H]2O)cc1Cc1ccc(-c2ccc(F)cc2)s1.Cc1ccc([C@@H]2O[C@H](CO)[C@@H](O)[C@H](O)[C@H]2O)cc1Cc1ccc(-c2ccc(F)cc2)s1.O", "inhibition (%)": "50.7"}
{"smiles": "C[C@@H](CO)NC(=O)c1cc(-c2ccc(Cl)cc2)nn(-c2cnn(C)c2)c1=O", "inhibition (%)": "68.7"}
{"smiles": "COc1cc2c(cc1OC)CN(CCc1ccc(-n3nnc(-c4cc(OC)c(OC)cc4NC(=O)c4cc(=O)c5ccccc5o4)n3)cc1)CC2", "inhibition (%)": "65.1"}
{"smiles": "CCCCCNC1=C(c2cn(C)c3ccccc23)C(=O)N(C)C1=O", "inhibition (%)": "0.0"}
{"smiles": "CCc1ccc(NC(=O)Nc2c[nH]c3ccccc23)cc1", "inhibition (%)": "0.0"}
{"smiles": "CN(C)c1ncnc2c1ncn2[C@@H]1O[C@H](CO)[C@@H](N)[C@H]1O", "inhibition (%)": "0.0"}
{"smiles": "CCS(=O)(=O)c1cc(Nc2ncc(F)c(N(Cc3ccccc3C#N)c3cc(CO)ccc3C)n2)ccc1N1CCN(C)CC1", "inhibition (%)": "0.0"}
{"smiles": "CSc1ccc(CN2CCCC(Nc3ccc4[nH]ncc4c3)C2)cc1", "inhibition (%)": "68.1"}
{"smiles": "COc1cc2oc(=O)ccc2c(OC)c1C[C@@H](O)C(C)(C)O", "inhibition (%)": "30.2"}
{"smiles": "COc1ccc(-c2c(Cl)ncn2-c2ccc(S(N)(=O)=O)cc2)cc1F", "inhibition (%)": "49.9"}
{"smiles": "CC(=O)OC(C)C(C)C(=O)OC[C@@]12[C@H]3C[C@]4(C)C(=CC[C@@H]5[C@@]6(C)CC[C@H](O[C@@H]7O[C@H](C(=O)[O-])[C@@H](O[C@@H]8O[C@H](CO)[C@@H](O)[C@H](O)[C@H]8O)[C@H](O)[C@H]7O[C@@H]7OC[C@@H](O)[C@H](O)[C@H]7O)[C@@](C)(CO)[C@@H]6CC[C@]54C)[C@@H]1CC(C)(C)[C@H](O3)[C@@H]2O.[Na+]", "inhibition (%)": "30.9"}
{"smiles": "CCCCc1ccc(NC(=O)c2ccc([N+](=O)[O-])o2)cc1", "inhibition (%)": "0.0"}
{"smiles": "Cl.O=C1c2cccc3c2[C@H](CCC3)CN1[C@@H]1CN2CCC1CC2", "inhibition (%)": "0.0"}
{"smiles": "O=c1oc2cc(O)ccc2s1", "inhibition (%)": "37.2"}
{"smiles": "CCN(CC)CCNC(=S)Nc1ccc2nc(N3CCN(CC)CC3)cc(C)c2c1", "inhibition (%)": "61.1"}
{"smiles": "Cl.Clc1ccc(N2CCN(Cc3c[nH]c4ncccc34)CC2)cc1", "inhibition (%)": "0.0"}
{"smiles": "COc1nc(N(CC(C)(C)F)c2cc(Cl)c(F)cc2F)cnc1C(=O)[C@H]1C[C@@H]1C(=O)O", "inhibition (%)": "0.0"}
{"smiles": "O=C(NCc1ccccc1)c1csc(Nc2ccncn2)n1", "inhibition (%)": "50.6"}
{"smiles": "Oc1cc2c(cc1O)[C@@H]1c3ccc(O)c(O)c3OC[C@]1(O)C2", "inhibition (%)": "15.7"}
{"smiles": "CCOC1=C(O)C(=O)O[C@@H]1[C@@H](O)CO", "inhibition (%)": "0.0"}
{"smiles": "O=C(CS(=O)(=O)c1ccccc1)c1ccc(C(F)(F)F)cc1", "inhibition (%)": "0.0"}
{"smiles": "CN(C)C/C=C/C(=O)Nc1cccc(-c2c(-c3ccccc3)oc3ncnc(N[C@H](CO)c4ccccc4)c23)c1", "inhibition (%)": "0.0"}
{"smiles": "Cn1c(=O)c(Oc2ccc(F)cc2F)cc2cnc(NC3CCOCC3)nc21", "inhibition (%)": "0.0"}
{"smiles": "COc1c(OCCCN2CCOCC2)ccc2c3n(c(=NC(=O)c4cnc(N)nc4)nc12)CCN3.Cl.Cl", "inhibition (%)": "0.0"}
{"smiles": "Fc1ccc(Cn2c(Cl)nc3ccccc32)cc1", "inhibition (%)": "0.0"}
{"smiles": "CC(C)(C)COc1ccc(-n2cc(C(=O)O)cn2)cc1C#N", "inhibition (%)": "76.0*"}
{"smiles": "CCCc1cc(-c2nc(-c3ccc(C)cc3)cs2)ccn1", "inhibition (%)": "9.2"}
{"smiles": "N#Cc1ccccc1OCC(O)CNCCNC(=O)Nc1ccccc1", "inhibition (%)": "0.0"}
{"smiles": "COC1CCC(C(=O)c2ccc3nc4c(cc3c2)CCCO4)CC1", "inhibition (%)": "17.0"}
{"smiles": "O[C@H]1[C@H](O)[C@@H](O)CN2CC[C@H](O)[C@H]12", "inhibition (%)": "46.7"}
{"smiles": "CCCS(=O)(=O)Nc1ccc(F)c(-n2cc(-c3cncnc3)c3nc(N(C)C4CCN(CC)CC4)ccc32)c1F", "inhibition (%)": "0.0"}
{"smiles": "Br.CN(C)CCCC1(c2ccc(F)cc2)OCc2cc(C#N)ccc21", "inhibition (%)": "6.7"}
{"smiles": "CC(=O)OCC1=CO[C@@H](OC(=O)CC(C)C)[C@H]2C1=C[C@H](OC(=O)CC(C)(C)OC(C)=O)[C@]21CO1", "inhibition (%)": "99.7*"}
{"smiles": "CC(C)(C)c1ccc(CN2CCN(C(c3ccccc3)c3ccc(Cl)cc3)CC2)cc1.Cl.Cl", "inhibition (%)": "12.5"}
{"smiles": "CC[C@H](N)c1ccc(N(C)C)cc1C", "inhibition (%)": "63.0"}
{"smiles": "CC1(C)C=Cc2c(-c3c4c(c5ccccc5c3O)OC(C)(C)C=C4)c(O)c3ccccc3c2O1", "inhibition (%)": "43.3"}
{"smiles": "O=C(CCCCC(=O)Nc1scc(-c2cccs2)c1C(=O)O)Nc1scc(-c2cccs2)c1C(=O)O", "inhibition (%)": "3.0"}
{"smiles": "Fc1ccc(Nc2nc3ccccc3nc2Nc2ccc(F)cc2)cc1", "inhibition (%)": "64.8"}

The last 10 compounds once more:

| smiles | inhibition (%) |
|---|---|
| COC1CCC(C(=O)c2ccc3nc4c(cc3c2)CCCO4)CC1 | 17.0 |
| O[C@H]1[C@H](O)[C@@H](O)CN2CC[C@H](O)[C@H]12 | 46.7 |
| CCCS(=O)(=O)Nc1ccc(F)c(-n2cc(-c3cncnc3)c3nc(N(C)C4CCN(CC)CC4)ccc32)c1F | 0.0 |
| Br.CN(C)CCCC1(c2ccc(F)cc2)OCc2cc(C#N)ccc21 | 6.7 |
| CC(=O)OCC1=CO[C@@H](OC(=O)CC(C)C)[C@H]2C1=C[C@H](OC(=O)CC(C)(C)OC(C)=O)[C@]21CO1 | 99.7* |
| CC(C)(C)c1ccc(CN2CCN(C(c3ccccc3)c3ccc(Cl)cc3)CC2)cc1.Cl.Cl | 12.5 |
| CC[C@H](N)c1ccc(N(C)C)cc1C | 63.0 |
| CC1(C)C=Cc2c(-c3c4c(c5ccccc5c3O)OC(C)(C)C=C4)c(O)c3ccccc3c2O1 | 43.3 |
| O=C(CCCCC(=O)Nc1scc(-c2cccs2)c1C(=O)O)Nc1scc(-c2cccs2)c1C(=O)O | 3.0 |
| Fc1ccc(Nc2nc3ccccc3nc2Nc2ccc(F)cc2)cc1 | 64.8 |